{
  "sequences": {"note": "By UniProt entry, the sequences of proteins in these tests, tags left out. Where a name states a change or a piece, a line headed by the entry shows the natural chain unless it says otherwise.", "UniProt Q9NPD5": "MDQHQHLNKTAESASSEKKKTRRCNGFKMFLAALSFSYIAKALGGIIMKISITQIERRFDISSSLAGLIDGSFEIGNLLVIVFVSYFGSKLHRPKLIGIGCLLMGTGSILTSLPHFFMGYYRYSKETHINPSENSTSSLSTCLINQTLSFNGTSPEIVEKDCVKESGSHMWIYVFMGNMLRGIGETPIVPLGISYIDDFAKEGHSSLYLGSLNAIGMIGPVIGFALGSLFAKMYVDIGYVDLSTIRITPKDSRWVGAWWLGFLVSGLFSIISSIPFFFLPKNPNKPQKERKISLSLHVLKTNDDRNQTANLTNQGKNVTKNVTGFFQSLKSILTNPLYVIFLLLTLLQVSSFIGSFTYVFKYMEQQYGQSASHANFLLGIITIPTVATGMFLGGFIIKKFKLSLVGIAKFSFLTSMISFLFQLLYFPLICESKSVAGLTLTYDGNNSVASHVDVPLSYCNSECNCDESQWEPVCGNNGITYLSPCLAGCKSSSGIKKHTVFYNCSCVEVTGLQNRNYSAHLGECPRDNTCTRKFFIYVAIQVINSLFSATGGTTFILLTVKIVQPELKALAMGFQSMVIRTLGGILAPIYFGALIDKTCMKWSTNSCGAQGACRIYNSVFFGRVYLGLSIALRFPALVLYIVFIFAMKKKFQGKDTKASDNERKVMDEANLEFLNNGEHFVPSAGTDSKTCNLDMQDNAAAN"},
  "source": "patent US20170067909A1",
  "about": "“ASSAY-READY RECOMBINANT CELLS TRANSIENTLY OVEREXPRESSING GENES ENCODING DRUG TRANSPORTER PROTEINS AND/OR DRUG METABOLIZING ENZYMES” (Corning Incorporated, priority 2012, published 2017)",
  "origin": "cited, not measured here",
  "target": "OATP1B3 (Homo sapiens, UniProt Q9NPD5)",
  "conditions": "read-out: Km, Literature Report; CHO Cells; Poirier A, et al., J Pharmacokinet Pharmacodyn, 2009; cited from earlier work",
  "data": [
    {"molecule": "CSCC[C@H](NC(=O)[C@H](Cc1ccc(OS(=O)(=O)O)cc1)NC(=O)[C@@H](N)CC(=O)O)C(=O)NCC(=O)N[C@@H](Cc1c[nH]c2ccccc12)C(=O)N[C@@H](CCSC)C(=O)N[C@@H](CC(=O)O)C(=O)N[C@@H](Cc1ccccc1)C(N)=O", "note": "[CCK-8, cholecystokinin]", "values": [
      {"measurement": "Km", "value": 16.5, "unit": "µM"}
    ]}
  ]
}
